These are literature values, as cited in US20210002295A1, “SMALL MOLECULE DEGRADERS THAT RECRUIT DCAF15” (Dana-Farber Cancer Institute, Inc., priority 2017, published 2021).

As a reminder, the Kd is the free concentration of one partner at which half of the binding sites on the other are occupied at equilibrium, for simple one-to-one binding.

The data set has as its target bromodomains of BET proteins. The conditions noted are these: stated for small molecule BET inhibitors.

For `CCNC(=O)C[C@@H]1N=C(c2ccc(Cl)cc2)c2cc(OC)ccc2-n2c(C)nnc21` [I-BET762], the Kd is about 0.01 µM.
